The structures appear in SMILES notation. This is a selection; strong and weak results do not stand in their true shares. Inconclusive results are not listed. Calls of active or inactive are those of the source. The call rests on the fitted dose curve; in most records, active means well fitted inhibition curve with a large enough effect in the signal ratio, with a control signal flat (not every such curve was filed as active); inconclusive means small, poorly fitted or top-dose-only effect, or effect the other way, or a change in a side signal; inactive means flat fitted curve, though single readings scatter; the % refers to the signal ratio.

A short description of this assay: qHTS Assay to Find Inhibitors of Chronic Active B-Cell Receptor Signaling.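 Further: plate controls were basal doxycycline-induced cells for no effect and cells given 10 µM MG132 for full effect.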 As to conditions: ABC-DLBCL IkBa-CBG/CBR reporter, luminescence ratio (green luciferase fused to IkBa over red control in TMD8 lymphoma cells), 4 h; at 46.1 µM (top of the series). An excerpt: NIH Molecular Libraries Probe Production Network [MLPCN] NIH Chemical Genomics Center [NCGC] MLPCN Grant: 1 R03 DA031086-01A1 PI Name: Dr. R. Eric Davis NCGC Assay Overview: Diffuse large B-cell lymphoma (DLBCL) is the most common category of non-Hodgkin lymphoma, with ~20,000 new cases per year in the United States. DLBCL should be regarded as a collection of different neoplasms. Microarray gene expression analysis has defined two principal types of DLBCL, named for their similarity to normal B cell stages or activation states: a germinal center B-cell (GCB) type, and an activated B-cell (ABC) type. In ABC-DLBCL, a constitutive high-level activity of the NF-kappaB family of transcription factors has been observed (1) and NF-kappaB target genes are more highly expressed in ABC primary tumors than in GCB tumors. Functional studies have shown a constitutive high-level activity of the IkappaB (inhibitor of kappa-B) kinase (IKK) complex. […] Further analysis of DLBCL primary tumors for NF-kappaB target gene expression imply that although CARD11 is required for constitutive IKK activity in all ABC-DLBCL lines, mutations in CARD11 may be the root cause of IKK activation only in lines or tumors with such mutations. In other words, CARD11 mutations may explain NF-kappaB activation in only 10% of ABC-DLBCL cases. […] This process has been termed 'chronic active BCR signaling' (CABS). The goal of this screen is to find small-molecule inhibitors of the CABS pathway found in ABC-DLBCL lines using a cell-based assay that measures IkappaBalpa stability, which has already been extensively validated in the OCI-Ly3 line (PubChem AID:445; REF: 4). […] The assay uses green (CBG68) and red (CBR) emitting beetle luciferases [Chroma-GloTM developed by Promega Corp.] where the green luciferase is fused to IkappaBalpha and the red luciferase is present in its native state. Both luciferase genes are stably present in the TMD8 human ABC DLBCL cell line, but their expression is under the control of tetracycline-inducible promoters. Following the addition of doxycycline to induce expression of the luciferases, the green luminescence in control cultures rises only slowly because the CBG fusion partner IkappaBalpha is targeted by IKK activity for rapid degradation. In contrast, green luminescence rises rapidly in the presence of proteasome inhibitors or IKK inhibitors. The rise in red luminescence of CBR is not affected by proteasome or IKK inhibitors, and serves as normalization for cell number and nonspecific effects. Compounds were screened as a concentration-titration series that ranged from 46 uM to 3 nM.
NCGC Assay Protocol Summary: Cells were seeded in 1536-well plates at 5000 cells/4uL in IMDM medium containing 0.5% FBS, w/o phenol red, 1% penicillin/streptomycin. Then, 23 nL of compounds or DMSO were delivered to each well using a pin tool. One uL 20ng/ml doxycycline was then dispensed into white solid 1536-well plates and the plates were incubated at 37C/5% C02 in a cell incubator for 4 hrs. Then 4 uL luminescent substrate mix (in-house prepared: 150 mM Tris-Cl, pH 7.6, 3 mM MgCl2, 1% Triton X-100, 5 mM DTT, 0.2 mM CoA, 0.15 mM ATP, 5 mM D-luciferin, final concentrations) was added to each well. The plate was incubated at r.t. for 10-15 min. The plates were measured on a ViewLux plate reader for green luminescence (540/20 nm filter) and red luminescence (618/8 nm filter). The green and red luminescent signals were corrected for red and green luminescence filter overlap using previously determined filter calibration constants (determined using the procedure outlined in the Promega Technical Manual; REF 4). The %Activity was determined from the ratio of corrected green/red luminescent values. MG132 were used as control. […] Red luminescent %Activity was normalized to the difference between red luminesence in basal cells (0%Activity) and zero luminescence (-100% Activity). […]
As for `O=C(NC(Sc1ccncn1)C(Cl)(Cl)Cl)c1ccccc1` (stereo unspecified), the activity change, negative = inhibition is inactive: -1%. For `CC(C)CC(=O)NC(Sc1ccc(Cl)cc1)C(Cl)(Cl)Cl` (stereo unspecified), the activity change, negative = inhibition is inactive: -17.4%. As to `Clc1ccc(Cl)c(NC2=NCC(CBr)S2)c1` (stereo unspecified), the activity change, negative = inhibition was inactive: -7.66%. As for `COc1ccccc1OP(=O)(Nc1ccc(C)cn1)Oc1ccccc1OC`, the activity change, negative = inhibition was inactive: -6.37%.

In the case of `Cc1ccc(OP(=O)(Nc2nccs2)Oc2ccc(C)cc2)cc1`, the activity change, negative = inhibition was inactive: -2.26%. The value for `CN(C(=O)Cc1ccc(Cl)c(Cl)c1)[C@H]1CCCC[C@H]1N1CCCC1` was inactive: -20.1%. On to `Cc1ccc(N/C(=N/P(=O)(N2CCOCC2)N2CCOCC2)N2CCOCC2)cc1`, for which the activity change, negative = inhibition is inactive: 6.39%. As for `NC(=O)c1cc([N+](=O)[O-])cc([N+](=O)[O-])c1N`, the activity change, negative = inhibition was inactive: -2.43%. Take `Nc1cccc2ccc([As](=O)(O)O)cc12`: the activity change, negative = inhibition is inactive: -3.61%. `CCN(N=Nc1nonc1N)c1nonc1N`: the activity change, negative = inhibition is inactive: 7.05%. The value for `CCOP(=O)(Nc1ccccc1)OCC` was inactive: 0.936%.

In the case of `Cc1cc(SC(NC(=O)c2ccc(F)cc2)C(Cl)(Cl)Cl)ncn1` (stereo unspecified), the activity change, negative = inhibition was inactive: 5.94%. With `CC(=O)Nc1ccc([As](=O)(O)O)cc1`, the activity change, negative = inhibition is inactive: -0.925%. With `O=C(O)CNc1ccc([As](=O)(O)O)cc1`, the activity change, negative = inhibition is inactive: 2.35%. Turning to `O=[N+]([O-])c1cccc(NC2=NCC(CBr)S2)c1` (stereo unspecified), the activity change, negative = inhibition was inactive: -0.999%. In the case of `O=[N+]([O-])c1ncn(CCn2ncnc2[N+](=O)[O-])n1`, the activity change, negative = inhibition is inactive: -2.45%. As for `CC(C)(C)C(=O)NC(Sc1ccncn1)C(Cl)(Cl)Cl` (stereo unspecified), the activity change, negative = inhibition is inactive: -4.24%. Consider `CC1CCN(C(=O)Oc2c(Cl)cc(Cl)c3cccnc23)CC1`, for which the activity change, negative = inhibition is inactive: 10.1%.

Regarding `CC(C)=N/N=C(\N)N[N+](=O)[O-]`, the activity change, negative = inhibition was inactive: 4.44%.

As to `CN(C)C(=O)OCCc1n(C)cc[n+]1C`, the activity change, negative = inhibition was inactive: -0.164%. As to `CCN(/C(=N/P(=O)(N1CCOCC1)N1CCOCC1)N1CCOCC1)c1ccc(OC)cc1`, the activity change, negative = inhibition was inactive: 0.599%. For `Nc1ccc([As](=O)(O)c2ccc(N)cc2)cc1`, the activity change, negative = inhibition was inactive: -3.48%. As to `Cc1ccc(NP(=O)(Oc2ccccc2)Oc2ccccc2)nc1`, the activity change, negative = inhibition was inactive: -10.5%.

In the case of `CC(=O)N1C2C3N(C(C)=O)C1C1N(C(C)=O)C(C(N1C(C)=O)N3C(C)=O)N2C(C)=O`, the activity change, negative = inhibition was inactive: 2.17%.

On to `O=[N+]([O-])c1cccc2n[nH]nc12`, for which the activity change, negative = inhibition is inactive: 9.8%. For `c1nnnn1CCn1cnnn1`, the activity change, negative = inhibition is inactive: -9.75%. The value for `O=P(Nc1nccs1)(c1ccccc1)c1ccccc1` was inactive: -12.6%; that for `CC(C)C(=O)NC(Sc1ccccc1)C(Cl)(Cl)Cl` (stereo unspecified) was inactive: -1.73%; that for `O=C(OC1CN2CCC1CC2)c1cccc(Cl)c1` (stereo unspecified) was inactive: 2.16%.

Consider `Nc1ccc([As](=O)(O)c2ccc([N+](=O)[O-])cc2)cc1`, for which the activity change, negative = inhibition was inactive: -9.89%.

As to `O=[As](O)(c1ccccc1)c1ccc(O)cc1`, the activity change, negative = inhibition was inactive: 1.67%. Regarding `O=[N+]([O-])c1ncn(CCn2cnc([N+](=O)[O-])n2)n1`, the activity change, negative = inhibition is inactive: -0.196%. On to `O=P(Nc1nc2ccccc2s1)(c1ccccc1)c1ccccc1`, for which the activity change, negative = inhibition was inactive: 1.95%. Turning to `C[C@H]1OP(=O)(Oc2ccccc2)[C@H](O)[C@H](O)[C@H]1N=[N+]=[N-]` (stereo partly specified), the activity change, negative = inhibition is inactive: 2.09%. Turning to `CN(C)C1(CNC(=O)c2ccc(Cl)c(S(N)(=O)=O)c2)CCCCC1`, the activity change, negative = inhibition was inactive: -12.6%. The value for `O=P(Nc1ccccn1)(c1ccc(Br)cc1)c1ccc(Br)cc1` was inactive: -1.22%; that for `Cc1ccccc1OP(=O)(Nc1ccccn1)Oc1ccccc1C` was inactive: -10.9%; that for `CC(NC(=O)COC(=O)C(O)(c1ccccc1)c1ccccc1)c1ccccc1` (stereo unspecified) was inactive: -6.74%. Take `CN(C)C(=O)Oc1noc2ccccc12`: the activity change, negative = inhibition was inactive: -1.79%. Regarding `O=c1c2cc([N+](=O)[O-])ccc2[nH]c2c([N+](=O)[O-])cc([N+](=O)[O-])cc12`, the activity change, negative = inhibition was inactive: 11.8%. In the case of `O=C(OC1CN2CCC1CC2)c1ccccc1` (stereo unspecified), the activity change, negative = inhibition was inactive: -1.93%. For the compound `CCC(=O)N1C2C3N(C(=O)CC)C1C1N(C(=O)CC)C(C(N1C(=O)CC)N3C(=O)CC)N2C(=O)CC`, the activity change, negative = inhibition was inactive: -3.43%. The value for `COC(=O)c1cc2c(s1)N=C(c1ccccc1)N(C)P2(=O)N1CCOCC1` (stereo unspecified) was inactive: -0.86%; that for `CC(=O)NC(SC(=S)N(CC(C)C)CC(C)C)C(Cl)(Cl)Cl` (stereo unspecified) was inactive: 1.57%.

As for `Cc1ccc(OP(=O)(Nc2ccccn2)Oc2ccc(C)cc2)cc1`, the activity change, negative = inhibition is inactive: -8.17%. Consider `c1ccc(-c2nn[nH]n2)c(-c2nn[nH]n2)c1`, for which the activity change, negative = inhibition was inactive: -27.7%. As to `Cc1ccc(NP(=O)(Oc2cccc(C)c2)Oc2cccc(C)c2)nc1`, the activity change, negative = inhibition was inactive: -3.12%. On to `CCOC(=O)NC(Sc1ccccc1)C(Cl)(Cl)Cl` (stereo unspecified), for which the activity change, negative = inhibition was inactive: -25.7%.

For `CCNC(=S)/N=C(\N)N[N+](=O)[O-]`, the activity change, negative = inhibition is inactive: 2.32%. The value for `CC(=O)Nc1ccc([As](=O)(O)O)c(O)c1` was inactive: -0.689%; that for `CC(=O)Nc1ccc(Oc2c([N+](=O)[O-])cc([N+](=O)[O-])cc2[N+](=O)[O-])cc1` was inactive: 0.694%. On to `Cc1ccccc1CN(C)C(=O)COC(=O)C(O)(c1ccccc1)c1ccccc1`, for which the activity change, negative = inhibition is inactive: -0.895%. `C[C@@H]1C=CCP(=O)(Oc2ccccc2)O1` (stereo partly specified): the activity change, negative = inhibition is inactive: 0.597%. On to `CC(=O)c1ccc(N2CC2c2ccncc2)cc1` (stereo unspecified), for which the activity change, negative = inhibition was inactive: 0.043%.

Take `CC(C)(C)C(=O)NC(Sc1ccccc1)C(Cl)(Cl)Cl` (stereo unspecified): the activity change, negative = inhibition was inactive: 1.49%. On to `COc1cc(C2NCCC3(OCCO3)C2(C)C)cc(OC)c1OC` (stereo unspecified), for which the activity change, negative = inhibition was inactive: -4.29%.

(Values after PubChem BioAssay AID493014 (National Center for Advancing Translational Sciences (NCATS), 2011).)
